Results: patent US8871280B1, “Compositions and methods for treating fungal activity in plants or soil” (The United States of America, as represented by the …, priority 2011, dated 2014)

How the values were obtained:
Rhizoctonia solani = assay: Greenhouse suppression of damping off of cucumber seedlings in R. solani infested soil amended with plant extract; assay type: in vivo, Rhizoctonia solani AG-4, isolate Rs 23A; conditions: 12 seeds sown per pot, infested soil amended with 0.3% PE
cucumber seeds = conditions: in vivo
Description: Soil treatment: For each treatment, 300 g of dry greenhouse soli (Pro-mix, Premier Horticulture LTD, Red Hill, Pa.) was thoroughly mixed with Rhizoctonia inoculum and incubated for 15 days as described above. […] The infested soil treated with only the carrier solution served as an untreated control. Following the treatment, the soil was thoroughly stirred to mix the contents and incubated in a double polythene bag closed tightly in the dark at room temperature for four days for fumigation to occur. Following the incubation, the bag was opened to allow as much PE to dissipate as possible. This was done by sprinkling the surface soil with sterile water every other day, and stirring the soil once every day for seven days. For assay of effect on seed germination and phytotoxicity of the plant extracts, soil was treated with plant extract formulations alone.
Greenhouse studies: Treated soil from each treatment was distributed to 4-inch plastic pots into which 12 seeds of cucumbers (95-100% germination) were sown and lightly watered to keep soil moist. The treatments were color coded and pots were randomized across treatment. All plants were kept in a greenhouse between 20° C. (night) to 26° C. (day) with 14 h of light. […] Total number of seedlings without any sign of damping off in each pot was recorded and percentage of disease suppression were calculated four weeks after sowing cucumber seeds.

Row | SMILES | Avg. seed Germination (+ PE + R. solani) (Rhizoctonia solani) | % Seed germination (+ PE only) (cucumber seeds) [%] | Avg. seed germination (+ PE only) (cucumber seeds)
1 | C=CCN=C=S [Allyisothiocynate] | 10.67 | 86.10 | 10.33
2 | CC(C)=CCC/C(C)=C/CO [Geraniol] | 9.33 |  | 
